Results as given in US20060062783A1.

Biological target: Human PTH (7-84) (human)
Test: ELISA on coated peptide; B cell supernatant

B1: anti-PTH mAb 262 (antibody, IgG2, V domains shown)
VH: EVQLVESGGGLVKPGGSLRLSCAASGFTFSNAWMSWVRQAPGKGLEWVGRIKSKTDGGTTDYAAPVKGRFNISRDDSKNTLYLQMNSLKTEDTAVYYCTTGATFDSWGQGTLVTVSS
VL: DIVMTQSPLSLPVTPGEPASISCRSSQSLLHSNGYKYLDWFLQKPGQSPQLLIYLGSIRASGVPDRFSGSGSGTDFTLKISRVEAEDVGVYYCMQALQTPWTFGQGTKVEIK
- OD: 0.07 OD450
